What all share (assay type): cell-based, human
The test system of assay [1] is Patient C2 colon cancer cells. Description: CELx Combination test, impedance biosensor CReMS. The note with it: Patient C2 cells (printed Patient 2), single drug. The procedure:
(§1) A CELx Combination test was performed using cells from two colon cancer patients (Patients C1 and C2), EGF, and a combination of two drugs indicated for colon cancer, Cetuximab and Irinotecan. The physiologic change of the C1 and C2 cells during the test was measured with an impedance biosensor CReMS and the output from the CReMS is recorded in FIGS. 3A and 3B. The comparison of the CELx test result and the third party clinical reference is recorded in FIG. 3C. […] The test also illustrates how the CELx test operates with colon cancer cells, in addition to breast cancer cells.
(§2) The CReMS, microplate, reagents, and buffers used in Examples 1 and 2 are the same as those employed in Example 3, except for the therapeutic agent used. In Example 3, two therapeutic agents, cetuximab and irinotecan, were tested. Irinotecan was purchased from Selleck Chemicals (TX, USA) and cetuximab was obtained from a clinical dispensary.
(§3) Between 6,000-12,000 cells in each well were seeded into the impedance microplate containing 120 uL settling media with serum. The solution was replaced with media containing no serum to synchronize the cells with respect to physiologic state. Twenty microliters each of irinotecan and cetuximab was added to one set each of the C1 and C2 cells; another control set of C1 and C2 cells received no drugs. […]

Assay [2] deals with Patient C1 colon cancer cells. In words: CELx Combination test, impedance biosensor CReMS. The note with it: single drug. The method, then:
as §1, §2, §3

Assay [3] relates to Patient B1 HER2 overexpressing breast cancer cells. Description: CELx Pathway Shutdown test, impedance biosensor CReMS, EGF stimulation. Conditions: drug added two hours before EGF pathway stimulation, compared to stimulation with no drug. The procedure:
A CELx Pathway Shutdown test was performed using cells from two HER2 overexpressing breast cancer patients (Patient B1 and B4), two drugs (Lapatinib and Trastuzumab) that are indicated for HER2 positive breast cancers, and human epidermal growth factor (EGF). The physiologic change of the B1 and B4 cells during the test was measured with an impedance biosensor CReMS and the output from the CReMS is recorded in FIGS. 1A and 1B. The comparison of the CELx test results and the third party clinical reference is recorded in FIG. 1C. This example illustrates how the CELx test is able to predict the responsiveness that a patient will have to different targeted pathway drugs by using a CReMS to measure the physiological change in a patient's cells continuously over a period of several hours. This example also illustrates how the presence of a genetic biomarker, in this case an overexpressing HER2 gene, is not a sufficient condition to predict efficacy of the drug. […]
Cells from Patient B1 and B4 were utilized. […] Prior to addition to the impedance microplate, the cells were removed from their growth container with versene, counted, and re-suspended in media without serum or other growth factors. […]

Cetuximab: the “responsiveness to each individual drug” value in assay [1] was “responsive”. For the same substance, the “physiologic change in patient's cells by the individual drug” value in assay [2] is “did not cause a physiologic change”.

Regarding Trastuzumab, in assay [3], the “change (decrease) of cell index of the test cells after drug added” value is reported as “less than 5%”.

The values above are taken from patent publication US10976307B2, “Whole cell assays and methods” (Celcuity Inc., priority 2012, dated 2021).
